Laboratory results from patent publication US11396016B2, “System and method for a biomimetic fluid processing” (The Brigham and Women's Hospital, Inc., priority 2013, dated 2022).

System: MK
Conditions: live-cell microscopy, GFP-β1 tubulin

With trastuzumab emtansine [T-DM1] the MK differentiation was “inhibits”, the proPLT formation was “disrupts” and the tubulin organization was “abnormal”.
